PubChem BioAssay AID460 (PCMD, 2006)
The list shows a part of the results, in another mix than the full data. Active and inactive are the calls of the source. No stated cut-off is given here; in the data, active means inhibition above about 45%; inactive means the rest.

Amino acid sequences for entries named in this document (tags omitted). A change or cut given only in a name is not applied to a line headed by its entry.
UniProt P07711: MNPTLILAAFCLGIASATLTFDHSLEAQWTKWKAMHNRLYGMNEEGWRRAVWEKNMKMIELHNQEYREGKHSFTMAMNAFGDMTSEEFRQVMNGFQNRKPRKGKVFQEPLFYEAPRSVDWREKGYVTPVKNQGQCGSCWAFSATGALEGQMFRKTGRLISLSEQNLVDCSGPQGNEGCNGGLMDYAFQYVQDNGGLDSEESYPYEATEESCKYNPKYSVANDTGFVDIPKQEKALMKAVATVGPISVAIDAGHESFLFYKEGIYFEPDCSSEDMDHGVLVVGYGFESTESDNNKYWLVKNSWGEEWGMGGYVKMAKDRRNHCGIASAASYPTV

Each compound was assayed against Procathepsin L (Homo sapiens) (UniProt P07711) (assay: inhibitors of human cathepsin L, biochemical (AID 460;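 further: 0% = enzyme with no compound and 100% = no enzyme blank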)). Conditions: purified cathepsin L, fluorogenic substrate, fluorescence; hits give high values;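 tested at 10 µM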.

How did the inhibition turn out when O=P(Nc1nccs1)(c1ccccc1)c1nc2ccccc2s1 (centres undefined) was run?
Its inhibition is inactive: 12.4%.

How did the inhibition turn out when CCOP1(=S)c2c(C)nn(CCC#N)c2N=C(c2ccccc2F)N1C (centres undefined) was run?
The inhibition was inactive: -0.09%.

Which inhibition does the source give for CCOP1(=S)c2c(C)nn(CCC#N)c2N=C(c2ccc(F)cc2)N1C (centres undefined) here?
Its inhibition is inactive: 5.15%.

For Cc1cccc(OCC(=O)OC2CN3CCC2CC3)c1 (centres undefined), which inhibition is on record?
The inhibition was inactive: 14.9%.

O=P1(Nc2ccccn2)COc2ccccc2OC1 was tested. Which inhibition did it give?
The inhibition was inactive: -11.1%.

Which inhibition does the source give for Clc1n[nH]nc1-c1nn[nH][15n]1 here?
Its inhibition is inactive: -2.04%.

For Cc1nn(-c2ccccc2)c2c1P(=O)(N1CCOCC1)N(C)C(c1ccccc1)=N2 (centres undefined), which inhibition is on record?
The inhibition was inactive: -2.82%.

Which inhibition does the source give for O=P1(Nc2ncccn2)COc2ccccc2OC1 here?
The inhibition was inactive: 2.46%.

O=P1(Nc2ccc(Br)cn2)COc2ccccc2OC1 was tested. Which inhibition did it give?
Its inhibition is inactive: -5.5%.

Cc1ccc(OCC(=O)OC2CN3CCC2CC3)cc1 (centres undefined) was tested. Which inhibition did it give?
Its inhibition is inactive: 0.19%.

With COP1(=S)c2c(C)nn(CCC#N)c2N=C(c2ccc(F)cc2)N1C (centres undefined) as the compound, how does the inhibition read?
Its inhibition is inactive: 7.63%.

How did the inhibition turn out when O=C(COc1ccccc1)OC1CN2CCC1CC2 (centres undefined) was run?
The inhibition was inactive: 7.37%.

O=C(OC1CN2CCC1CC2)C12CC3CC(CC(C3)C1)C2 (centres undefined) was tested. Which inhibition did it give?
Its inhibition is inactive: -7.5%.

CCc1nc2c(n1)c1c(non1O)c1c2no[n+]1[O-] was tested. Which inhibition did it give?
The inhibition was inactive: 5.63%.

For O=C(OC1CN2CCC1CC2)c1cccc(Cl)c1 (centres undefined), which inhibition is on record?
The inhibition was inactive: -4.04%.

For O=P(Nc1nccs1)(c1ccccc1)c1ccccc1, which inhibition is on record?
The inhibition was inactive: -2.19%.

Which inhibition does the source give for c1nnnn1CCn1cnnn1 here?
The inhibition was inactive: 8.82%.

With O=P1(Nc2nc3ccc(Cl)cc3s2)COc2ccccc2O1 (centres undefined) as the compound, how does the inhibition read?
Its inhibition is inactive: 22.3%.

How did the inhibition turn out when COC(=O)c1cc2c(s1)N=C(c1ccccc1)N(C)P2(=O)N1CCOCC1 (centres undefined) was run?
Its inhibition is inactive: -4.36%.
